Broadly, the mortality is the percentage killed.

Some compounds may have been tested in ways that are not shown here.

Here are results for one molecule from ChEMBL document CHEMBL4017539, “Oral Delivery of Propofol with Methoxymethylphosphonic Acid as the Delivery Vehicle” (J Med Chem, 2017).

The series concerns Mus musculus. In words: Toxicity in ICR mouse assessed as death at 200 mg equiv/kg parent drug administered via oral gavage relative to control. As to conditions: in vivo.

For the molecule `CCCP(=O)(N[C@@H](C)C(=O)OCC)Oc1c(C(C)C)cccc1C(C)C` (stereo partly specified), the mortality came out at 0%.
